pIC50: −log10 of the molar value.
Molecular target: Human recombinant monoamine oxidase MAO-B (Homo sapiens, UniProt P27338)
Experiment: biochemical

Chains of the proteins cited; added tags and fusions are not shown.
UniProt P27338, whole entry: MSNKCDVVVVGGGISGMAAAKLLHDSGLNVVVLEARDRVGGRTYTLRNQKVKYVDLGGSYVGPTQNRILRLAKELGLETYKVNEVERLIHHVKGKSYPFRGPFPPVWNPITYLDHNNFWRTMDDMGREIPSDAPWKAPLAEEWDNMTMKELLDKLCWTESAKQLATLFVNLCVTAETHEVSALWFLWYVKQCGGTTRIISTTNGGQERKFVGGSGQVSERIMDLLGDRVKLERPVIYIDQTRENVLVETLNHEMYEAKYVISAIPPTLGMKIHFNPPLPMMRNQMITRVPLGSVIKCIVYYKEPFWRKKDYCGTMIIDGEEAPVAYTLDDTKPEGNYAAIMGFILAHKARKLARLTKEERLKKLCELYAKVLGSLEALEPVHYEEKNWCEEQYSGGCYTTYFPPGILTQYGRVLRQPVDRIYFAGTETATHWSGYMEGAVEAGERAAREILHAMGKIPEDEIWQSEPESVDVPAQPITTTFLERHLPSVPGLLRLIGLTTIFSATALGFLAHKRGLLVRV

pIC50: < 6.00
Structure (SMILES): CN1CCN(C(=O)CNC2CC2c2ccc(C3CC3)cc2)CC1 (stereo not shown) [Selective-2]
